{"source": "paper PMC6237130", "about": "“Disarming the virulence arsenal of Pseudomonas aeruginosa by blocking two-component system signaling” (Chemical Science, 2018)", "key": {"P. aeruginosa PA14": {"test_system": "P. aeruginosa PA14", "experiment": "RT-qPCR of virulence and TCS genes in PA14", "type": "cell-based, Pseudomonas aeruginosa", "conditions": "PA14, 9 h, 200 and 500 μM", "procedure": "RNA isolation, Reverse Transcriptase -qPCR experiments\nP. aeruginosa PA14 strain was grown overnight (~16 h) in LB media at 37 °C and 200 RPM.\nThe overnight culture was diluted 1:100 in fresh LB media. Four mL of this culture was then taken in a 15 mL borosilicate glass tube, to which Rilu-inhibitors in DMSO were added to a final concentration of 200 µM or 500 µM (for the control experiments, same amount of DMSO was added). These cultures were then grown for 9 h (late exponential phase) at 37 °C and 200 RPM, OD620 ~0.7. Total RNA was extracted from ~2 mL cell pellet using an RNAEasy Mini kit (Qiagen), according to the manufacturer’s instructions, including exogenous DNase treatment with Ambion Turbo-DNAse Kits. RNA integrity was confirmed by native gel electrophoresis and the quantities were measured using a nanophotometer. cDNA was generated using the DNA-free total RNA using (Applied Biosystems High Capacity cDNA Reverse Transcription Kits) random-primed reverse transcriptase reaction following the manufacturer’s protocol. The cDNA was used as template for quantitative PCR (BioRad MyiQ2 dual-color system) using the SYBR Green detection system (BioRad) on white 96-well PCR plates. […]\nexpression = 2(CT standard −C T sample), where CT (cycle time) was determined automatically by the Real Time iQ5 PCR software (BioRad). […]"}, "HK853": {"molecular_target": "HK853 (Thermotoga maritima, UniProt Q9WZV7)", "experiment": "Inhibition of HK853 activity (BODIPY-ATPγS competition, HK autophosphorylation)", "type": "biochemical"}}, "note": "Where two headings read alike, the source gives them in different places.", "data": [{"smiles": "Nc1nc2cc3sc(N)nc3cc2s1", "note": "[Rilu-12]", "values": [{"measurement": "gacA expression, downregulation / fold change", "setting": "P. aeruginosa PA14", "result": "12–15 fold"}, {"measurement": "IC50", "setting": "HK853; Fig. 1b and text, HK autophosphorylation, read-out: IC50 values for HK853 inhibitory activity", "result": 1.6, "unit": "µM"}, {"measurement": "IC50", "setting": "HK853; IC50 values (µM) (95% confidence interval), n = 2, Table S1, HK853 inhibition", "result": 1.56, "unit": "µM"}]}]}
